Measurements: PMC12232896 (Angewandte Chemie (International Ed. in English), 2025)
Read-outs that look alike come from different tables or passages of the source.

Protein sequences, listed by entry. Tags and fused reporters are not part of them. Lines headed by an entry give the natural chain unless they say otherwise; changes in a name come on top.
UniProt Q8N4C8: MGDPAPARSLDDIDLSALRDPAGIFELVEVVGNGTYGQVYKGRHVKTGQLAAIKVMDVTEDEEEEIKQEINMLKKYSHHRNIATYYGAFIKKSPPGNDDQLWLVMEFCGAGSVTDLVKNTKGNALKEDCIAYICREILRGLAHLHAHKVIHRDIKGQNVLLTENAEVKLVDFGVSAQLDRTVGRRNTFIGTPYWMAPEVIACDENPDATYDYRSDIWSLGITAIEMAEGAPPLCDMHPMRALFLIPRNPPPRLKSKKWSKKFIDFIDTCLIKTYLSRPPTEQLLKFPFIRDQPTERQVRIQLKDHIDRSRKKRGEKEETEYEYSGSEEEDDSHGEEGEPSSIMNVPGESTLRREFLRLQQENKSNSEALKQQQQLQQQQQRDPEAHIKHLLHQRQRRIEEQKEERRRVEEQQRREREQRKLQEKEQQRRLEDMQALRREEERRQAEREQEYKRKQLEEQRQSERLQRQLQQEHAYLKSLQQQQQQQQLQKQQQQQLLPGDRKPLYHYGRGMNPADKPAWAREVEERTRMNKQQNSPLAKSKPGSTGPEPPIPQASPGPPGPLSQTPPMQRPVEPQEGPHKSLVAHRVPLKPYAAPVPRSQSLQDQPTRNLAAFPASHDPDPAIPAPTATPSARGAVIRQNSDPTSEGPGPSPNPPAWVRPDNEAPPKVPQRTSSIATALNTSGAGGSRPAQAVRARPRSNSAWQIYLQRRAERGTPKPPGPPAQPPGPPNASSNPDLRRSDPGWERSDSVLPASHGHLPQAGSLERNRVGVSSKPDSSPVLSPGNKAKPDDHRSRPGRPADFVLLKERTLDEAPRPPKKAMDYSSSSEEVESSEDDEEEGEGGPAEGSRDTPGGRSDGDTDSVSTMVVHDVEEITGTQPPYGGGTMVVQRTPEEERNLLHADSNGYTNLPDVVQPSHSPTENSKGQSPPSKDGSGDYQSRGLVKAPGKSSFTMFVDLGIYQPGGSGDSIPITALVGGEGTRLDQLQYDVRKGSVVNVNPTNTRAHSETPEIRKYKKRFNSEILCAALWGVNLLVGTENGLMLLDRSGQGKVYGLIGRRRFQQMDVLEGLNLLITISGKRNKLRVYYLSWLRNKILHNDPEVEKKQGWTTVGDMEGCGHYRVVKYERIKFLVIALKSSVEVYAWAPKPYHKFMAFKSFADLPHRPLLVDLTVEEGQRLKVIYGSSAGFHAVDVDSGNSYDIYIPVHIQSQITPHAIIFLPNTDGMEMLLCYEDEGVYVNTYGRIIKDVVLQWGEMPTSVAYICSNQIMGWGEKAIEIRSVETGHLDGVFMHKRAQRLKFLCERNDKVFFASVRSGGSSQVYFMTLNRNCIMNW
UniProt Q8I719: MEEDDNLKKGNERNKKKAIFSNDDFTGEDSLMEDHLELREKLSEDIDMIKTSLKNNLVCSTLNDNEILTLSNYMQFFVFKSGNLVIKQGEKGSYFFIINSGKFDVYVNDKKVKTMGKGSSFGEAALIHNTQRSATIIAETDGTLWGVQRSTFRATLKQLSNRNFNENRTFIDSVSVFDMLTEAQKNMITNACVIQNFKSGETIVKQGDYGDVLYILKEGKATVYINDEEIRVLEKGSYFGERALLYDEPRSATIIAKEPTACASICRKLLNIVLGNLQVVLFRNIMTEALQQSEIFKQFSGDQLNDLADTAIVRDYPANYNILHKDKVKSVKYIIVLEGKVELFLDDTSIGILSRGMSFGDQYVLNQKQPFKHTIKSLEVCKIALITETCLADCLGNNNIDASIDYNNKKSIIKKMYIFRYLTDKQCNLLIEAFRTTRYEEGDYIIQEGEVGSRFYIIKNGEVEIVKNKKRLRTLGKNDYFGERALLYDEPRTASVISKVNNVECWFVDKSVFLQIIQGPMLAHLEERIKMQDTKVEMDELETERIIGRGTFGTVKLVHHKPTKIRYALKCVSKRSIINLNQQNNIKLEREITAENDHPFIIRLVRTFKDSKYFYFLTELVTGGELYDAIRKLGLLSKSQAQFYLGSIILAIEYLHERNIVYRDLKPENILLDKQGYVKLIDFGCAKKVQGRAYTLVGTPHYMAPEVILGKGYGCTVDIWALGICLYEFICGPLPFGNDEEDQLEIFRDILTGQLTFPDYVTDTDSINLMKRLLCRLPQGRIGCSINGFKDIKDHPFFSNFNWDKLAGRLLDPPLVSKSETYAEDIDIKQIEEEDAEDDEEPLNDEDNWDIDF
UniProt O95819: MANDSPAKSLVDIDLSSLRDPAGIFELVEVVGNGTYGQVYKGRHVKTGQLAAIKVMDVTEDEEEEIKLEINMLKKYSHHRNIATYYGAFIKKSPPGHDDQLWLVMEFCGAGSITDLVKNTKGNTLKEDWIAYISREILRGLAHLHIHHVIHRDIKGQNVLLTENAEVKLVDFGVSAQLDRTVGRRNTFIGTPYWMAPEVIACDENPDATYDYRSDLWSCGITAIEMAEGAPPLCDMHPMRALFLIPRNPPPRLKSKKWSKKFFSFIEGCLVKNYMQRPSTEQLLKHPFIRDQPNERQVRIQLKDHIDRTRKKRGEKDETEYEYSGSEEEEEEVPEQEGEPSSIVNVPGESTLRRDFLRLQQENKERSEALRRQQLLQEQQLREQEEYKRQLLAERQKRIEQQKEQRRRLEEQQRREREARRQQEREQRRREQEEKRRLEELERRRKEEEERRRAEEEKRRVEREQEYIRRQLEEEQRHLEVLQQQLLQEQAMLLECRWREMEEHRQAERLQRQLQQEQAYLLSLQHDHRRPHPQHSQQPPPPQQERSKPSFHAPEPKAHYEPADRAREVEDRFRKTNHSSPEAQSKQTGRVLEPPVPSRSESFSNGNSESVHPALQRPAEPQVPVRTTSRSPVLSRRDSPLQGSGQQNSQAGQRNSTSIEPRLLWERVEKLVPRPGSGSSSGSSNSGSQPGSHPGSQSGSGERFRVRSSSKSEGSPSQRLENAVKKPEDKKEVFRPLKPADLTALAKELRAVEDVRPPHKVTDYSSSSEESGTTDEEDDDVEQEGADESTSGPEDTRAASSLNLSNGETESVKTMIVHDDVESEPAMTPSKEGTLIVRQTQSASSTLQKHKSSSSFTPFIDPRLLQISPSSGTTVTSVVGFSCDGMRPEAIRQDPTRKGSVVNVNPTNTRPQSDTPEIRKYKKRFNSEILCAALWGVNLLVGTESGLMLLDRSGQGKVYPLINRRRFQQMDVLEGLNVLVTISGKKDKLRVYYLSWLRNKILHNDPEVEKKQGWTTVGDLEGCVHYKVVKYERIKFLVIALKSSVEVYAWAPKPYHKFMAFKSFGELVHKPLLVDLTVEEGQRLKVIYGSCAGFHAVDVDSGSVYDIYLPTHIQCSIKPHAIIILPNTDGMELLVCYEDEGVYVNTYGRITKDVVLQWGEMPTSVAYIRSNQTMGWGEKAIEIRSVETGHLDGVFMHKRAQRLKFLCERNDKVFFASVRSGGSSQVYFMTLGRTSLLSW

What was measured:
in vitro [1] = conditions: Chinese hamster
[2] = test system: PfNF54 male gamete exflagellation; test: microbe, parasite or virus in culture; conditions: Plasmodium falciparum, read-out: inhibition of male gamete exflagellation
P. berghei = conditions: oral, 4 × 50 mg kg^−1
[3] = test system: PfPI4Kβ cKD parasite line; test: microbe, parasite or virus in culture; conditions: Plasmodium falciparum, 72 h, read-out: IC50 PfPI4Kβ knockdown
PfNF54 ABS parasites = test: microbe, parasite or virus in culture; conditions: Plasmodium falciparum, 72 h
[4] = test system: stage IV and V gametocytes; conditions: IC90, 24 h, untreated 8.8 ± 0.2 µm
HsMINK1 = target: T1, HsMINK1 (Homo sapiens, UniProt Q8N4C8); test: HsMINK1 ADP-Glo kinase assay; type: biochemical; conditions: 10 µM ATP, read-out: enzyme inhibition HsMINK1
T1 construct: purchased Reaction Biology
Description: (§1) Reactions were carried out at 10 μM ATP.

PfDd2 ABS parasites = test: microbe, parasite or virus in culture; conditions: Plasmodium falciparum
[5] = test system: β-haematin (synthetic haemozoin) formation; conditions: detergent-mediated assay, relative to chloroquine and pyrimethamine controls
PfPKG = PfPKG (Plasmodium falciparum, UniProt Q8I719); test: biochemical
[6] = test system: P. falciparum gametocytes (luciferase reporter line 3D7elo1-pfs16-CBG99); test: microbe, parasite or virus in culture; conditions: Plasmodium falciparum, 48 h
hERG potassium channel = conditions: read-out: hERG IC50; cited from earlier work
late-stage gametocytes = conditions: read-out: late-stage gametocyte activity (PrestoBlue); PrestoBlue cell viability platform; cited from earlier work
[7] = test system: oocyst formation in A. coluzzii fed PfNF54 gametocyte-infected blood; conditions: 2 µM for 48 h before feeding, mean ± SD
Pf3D7 strain = conditions: Pf3D7, 10× IC50, 48 h
in vitro [8] = conditions: human, HepG2 cells
in vivo = conditions: Balb/C, mouse
HsMAP4K4 = target: T2, HsMAP4K4 (Homo sapiens, UniProt O95819); test: HsMAP4K4 ADP-Glo kinase assay; type: biochemical; conditions: 10 µM ATP, read-out: enzyme inhibition HsMAP4K4
T2 construct: purchased Reaction Biology
Description: as §1

PfK1 ABS parasites = test: microbe, parasite or virus in culture; conditions: Plasmodium falciparum, 72 h
[9] = test system: PfPI4Kβ cKD parasite line; conditions: cited from earlier work

CN(C)CCCOc1ccc(-c2ccc3ncc4c(c3c2)n(C2CCOCC2)c(=O)n4C)cn1 [AZD0156]
IC50 (in vitro [1]): 11700 nM | inhibition at 2 µM [2]: 90% | reduction in parasitaemia (P. berghei): 81% | IC50 [3]: 30 ± 2 nM | IC50 (PfNF54 ABS parasites): 335 ± 23 nM | mean gametocyte length after treatment [4]: 5.4 ± 0.4 µm | inhibition at 10 µM (HsMINK1): < 50% | IC50 (PfDd2 ABS parasites; 72 h): 136 ± 7 nM | IC50 (PfDd2 ABS parasites; read-out: IC50 PfDd2 parental line): 121 ± 13 nM | inhibition of β-haematin formation [5]: not to inhibit | IC50 (PfPKG): > 10000 nM | IC50 ([6]; read-out: IC50 late-stage gametocytes): 943 ± 41 nM | IC50 ([6]; read-out: IC50 mature gametocytes): 384 ± 37 nM | IC50 (hERG potassium channel): > 30000 nM | IC50 (late-stage gametocytes): 236 nM | transmission-blocking activity (reduction in oocyst prevalence) [7]: 56 ± 6% | transmission-reducing activity (reduction in oocyst intensity) [7]: 82 ± 5% | in vitro logPRR (Pf3D7 strain): 1.3 | viability at 24 h, 2 µM (in vitro [8]): 96% | AUC (in vivo; iv, 3 mg/kg): 8.53 µM·h | AUC (in vivo; po, 10 mg/kg): 14.2 µM·h | Cmax (in vivo; po, 10 mg/kg): 3000 nM | inhibition at 10 µM (HsMAP4K4): < 50% | IC50 (PfK1 ABS parasites): 415 ± 23 nM

CC(C)n1nc(-c2ccc3oc(N)nc3c2)c2c(N)ncnc21 [sapanisertib]
fold shift on PfPI4Kβ cKD [9]: > 10 fold
